{
  "source": "paper PMC5584209",
  "about": "“Anti-tumor efficacy of theliatinib in esophageal cancer patient-derived xenografts models with epidermal growth factor receptor (EGFR) overexpression and gene amplification” (Oncotarget, 2017)",
  "origin": "cited, not measured here",
  "system": "esophageal cancer patients with EGFR gene amplification or copy number gain",
  "parameters": "method as in earlier work",
  "conditions": "cited from earlier work",
  "note": "Where two headings read alike, the source gives them in different places.",
  "data": [
    {"smiles": "COc1cc2ncnc(Nc3ccc(F)c(Cl)c3)c2cc1OCCCN1CCOCC1", "note": "[Gefitinib, reference compound]", "values": [
      {"measurement": "overall survival HR", "setting": "patients carrying EGFR gene amplification, p = 0.007", "value": 0.19},
      {"measurement": "overall survival HR", "setting": "patients with EGFR gene copy number gain, p = 0.042", "value": 0.53}
    ]}
  ]
}
